Assays:
human αVβ8 = human αVβ8 (Homo sapiens, UniProt P06756+P26012); assay: human αVβ8 HTRF binding assay; conditions: read-out: Human αVβ8 IC50
Procedure: (§1) All binding assays used the HTRF (homogeneous time resolved fluorescence) technology from Cisbio International, therefore all assays are described as HTRF binding assays. The assay results for the Examples are listed above together with the characterization data. The HTRF binding assays are established for the following integrins: human αVβ6, human αVβ1, human αVβ3, human αVβ5, and human αVβ8. All assays used the following assay buffer: 20 mM Tris, pH 7.4, 1 mM MgCl2, 1 mM MnCl2, 0.01% Tween 20, and 0.01% BSA. Alternatively, a SPA-based assay was used for evaluation of receptor binding.
(§2) The following describes the components and a representative procedure for the human αVβ6 HTRF binding assay: Recombinant human αVβ6 Integrin (R & D systems, 3817-AV) was biotinylated. Biotinylated human αVβ6 Integrin was added to assay vessel at a final concentration of 1.25 nM. FITC-conjugated fibronectin (Cytoskeleton, FNR02) was then added at the final concentration of 5 nM. The mixture was centrifuged at 600 rpm for three minutes using Thermo Fisher Heraeus Multifuge X3 centrifuge and then incubated at room temperature for an hour. […] The resulting mixture was centrifuged at 600 rpm for three minutes using Thermo Fisher Heraeus Multifuge X3 centrifuge and then incubated at room temperature overnight in dark before reading HTRF signals. […]

Sequences of proteins named here, by UniProt entry; tags and fusion partners are left off. Residues count along the entry.
UniProt P06756, 31-992 limits assumed: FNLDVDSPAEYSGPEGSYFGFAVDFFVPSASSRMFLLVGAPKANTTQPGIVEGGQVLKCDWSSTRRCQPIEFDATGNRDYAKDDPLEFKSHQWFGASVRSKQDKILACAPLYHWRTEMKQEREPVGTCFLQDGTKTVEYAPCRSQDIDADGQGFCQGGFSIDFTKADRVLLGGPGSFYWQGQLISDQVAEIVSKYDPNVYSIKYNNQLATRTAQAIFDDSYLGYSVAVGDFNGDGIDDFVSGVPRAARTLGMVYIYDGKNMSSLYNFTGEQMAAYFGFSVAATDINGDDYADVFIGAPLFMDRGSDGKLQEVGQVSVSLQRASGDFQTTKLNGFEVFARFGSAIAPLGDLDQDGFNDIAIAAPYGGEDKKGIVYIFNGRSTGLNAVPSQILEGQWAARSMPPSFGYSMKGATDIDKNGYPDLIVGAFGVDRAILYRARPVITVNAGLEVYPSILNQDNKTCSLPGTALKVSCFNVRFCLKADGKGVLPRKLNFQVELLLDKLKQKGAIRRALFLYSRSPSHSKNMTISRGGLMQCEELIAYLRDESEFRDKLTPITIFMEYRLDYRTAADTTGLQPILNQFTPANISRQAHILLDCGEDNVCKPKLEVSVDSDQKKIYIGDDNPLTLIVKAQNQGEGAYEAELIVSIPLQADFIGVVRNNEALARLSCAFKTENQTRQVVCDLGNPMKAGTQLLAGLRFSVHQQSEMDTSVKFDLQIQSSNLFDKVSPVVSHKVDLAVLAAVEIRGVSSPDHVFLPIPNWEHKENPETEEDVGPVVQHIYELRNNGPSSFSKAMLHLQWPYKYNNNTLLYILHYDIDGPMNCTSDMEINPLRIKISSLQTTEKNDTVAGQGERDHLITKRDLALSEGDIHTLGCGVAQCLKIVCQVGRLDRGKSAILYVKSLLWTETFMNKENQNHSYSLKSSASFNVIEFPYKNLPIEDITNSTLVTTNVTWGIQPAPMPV
UniProt P26012, 43-684 limits assumed: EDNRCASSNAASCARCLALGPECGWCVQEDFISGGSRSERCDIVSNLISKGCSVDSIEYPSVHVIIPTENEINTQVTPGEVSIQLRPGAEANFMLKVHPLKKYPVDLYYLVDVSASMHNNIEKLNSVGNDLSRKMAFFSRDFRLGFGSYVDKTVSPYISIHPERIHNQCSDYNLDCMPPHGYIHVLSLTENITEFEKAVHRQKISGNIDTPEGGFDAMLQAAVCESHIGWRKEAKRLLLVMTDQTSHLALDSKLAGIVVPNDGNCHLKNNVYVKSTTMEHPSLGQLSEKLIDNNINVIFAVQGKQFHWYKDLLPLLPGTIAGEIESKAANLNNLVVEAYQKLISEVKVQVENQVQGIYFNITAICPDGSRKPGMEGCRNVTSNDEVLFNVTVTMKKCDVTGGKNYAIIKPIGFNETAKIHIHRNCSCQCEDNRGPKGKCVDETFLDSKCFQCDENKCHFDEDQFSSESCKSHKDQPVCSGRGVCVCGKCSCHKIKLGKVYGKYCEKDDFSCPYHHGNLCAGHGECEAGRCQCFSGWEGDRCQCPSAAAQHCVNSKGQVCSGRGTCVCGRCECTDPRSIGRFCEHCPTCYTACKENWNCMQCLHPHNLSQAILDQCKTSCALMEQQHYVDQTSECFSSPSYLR
UniProt P18084, 24-719 limits assumed: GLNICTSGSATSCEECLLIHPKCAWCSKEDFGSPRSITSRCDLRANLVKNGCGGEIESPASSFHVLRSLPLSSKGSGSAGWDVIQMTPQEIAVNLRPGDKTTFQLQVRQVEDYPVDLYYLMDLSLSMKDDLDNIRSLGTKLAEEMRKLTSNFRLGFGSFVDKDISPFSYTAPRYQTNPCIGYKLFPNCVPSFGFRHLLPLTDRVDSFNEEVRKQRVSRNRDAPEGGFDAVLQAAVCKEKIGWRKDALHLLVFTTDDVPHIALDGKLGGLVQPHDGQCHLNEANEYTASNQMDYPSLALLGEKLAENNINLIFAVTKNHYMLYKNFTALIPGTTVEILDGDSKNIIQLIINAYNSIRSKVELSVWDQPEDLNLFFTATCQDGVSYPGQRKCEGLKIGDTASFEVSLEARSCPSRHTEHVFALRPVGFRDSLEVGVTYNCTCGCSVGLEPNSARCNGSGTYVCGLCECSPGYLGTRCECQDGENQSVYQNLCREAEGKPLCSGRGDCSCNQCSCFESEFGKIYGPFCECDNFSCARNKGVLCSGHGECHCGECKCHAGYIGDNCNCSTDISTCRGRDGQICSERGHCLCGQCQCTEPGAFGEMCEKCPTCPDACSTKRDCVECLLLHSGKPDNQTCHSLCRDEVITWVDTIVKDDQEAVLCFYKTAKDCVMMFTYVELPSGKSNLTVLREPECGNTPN
UniProt P05106, 27-718 limits assumed: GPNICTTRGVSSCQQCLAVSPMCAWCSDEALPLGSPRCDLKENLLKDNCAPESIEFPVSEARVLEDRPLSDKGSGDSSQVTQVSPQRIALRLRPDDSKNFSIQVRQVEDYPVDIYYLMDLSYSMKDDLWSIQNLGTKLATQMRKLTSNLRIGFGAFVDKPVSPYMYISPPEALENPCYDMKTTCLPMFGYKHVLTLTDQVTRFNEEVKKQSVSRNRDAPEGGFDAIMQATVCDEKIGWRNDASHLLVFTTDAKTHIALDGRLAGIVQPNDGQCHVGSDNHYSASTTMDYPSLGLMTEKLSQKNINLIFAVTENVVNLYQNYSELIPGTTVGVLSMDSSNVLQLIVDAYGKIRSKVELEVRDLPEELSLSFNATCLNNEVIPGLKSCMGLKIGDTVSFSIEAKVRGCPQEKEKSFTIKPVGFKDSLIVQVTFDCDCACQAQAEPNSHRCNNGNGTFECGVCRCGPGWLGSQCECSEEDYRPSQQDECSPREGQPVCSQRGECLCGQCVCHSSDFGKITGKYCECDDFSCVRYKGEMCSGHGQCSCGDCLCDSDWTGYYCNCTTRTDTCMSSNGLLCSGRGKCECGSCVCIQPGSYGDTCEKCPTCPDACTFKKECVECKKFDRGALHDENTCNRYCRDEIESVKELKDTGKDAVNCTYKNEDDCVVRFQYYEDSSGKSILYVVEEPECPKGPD
UniProt P05556, 21-728 limits assumed: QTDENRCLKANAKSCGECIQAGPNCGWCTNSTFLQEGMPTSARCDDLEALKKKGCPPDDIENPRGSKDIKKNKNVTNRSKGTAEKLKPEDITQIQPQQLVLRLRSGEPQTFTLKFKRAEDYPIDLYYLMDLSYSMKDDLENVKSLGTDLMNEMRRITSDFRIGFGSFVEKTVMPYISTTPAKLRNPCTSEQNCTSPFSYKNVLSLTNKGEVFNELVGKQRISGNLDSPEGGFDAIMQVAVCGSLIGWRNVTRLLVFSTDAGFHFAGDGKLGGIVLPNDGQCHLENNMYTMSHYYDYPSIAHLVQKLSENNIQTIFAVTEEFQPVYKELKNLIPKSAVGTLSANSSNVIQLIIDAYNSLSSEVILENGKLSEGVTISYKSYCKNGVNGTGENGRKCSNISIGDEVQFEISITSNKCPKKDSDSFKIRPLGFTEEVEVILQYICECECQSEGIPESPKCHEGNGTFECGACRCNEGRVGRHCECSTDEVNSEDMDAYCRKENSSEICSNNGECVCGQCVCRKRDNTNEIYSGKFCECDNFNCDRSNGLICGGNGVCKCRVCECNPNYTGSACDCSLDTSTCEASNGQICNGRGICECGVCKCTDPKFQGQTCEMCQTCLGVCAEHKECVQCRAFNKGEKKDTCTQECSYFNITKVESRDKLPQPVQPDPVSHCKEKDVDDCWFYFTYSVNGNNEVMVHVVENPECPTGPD
UniProt P18564, 22-707 limits assumed: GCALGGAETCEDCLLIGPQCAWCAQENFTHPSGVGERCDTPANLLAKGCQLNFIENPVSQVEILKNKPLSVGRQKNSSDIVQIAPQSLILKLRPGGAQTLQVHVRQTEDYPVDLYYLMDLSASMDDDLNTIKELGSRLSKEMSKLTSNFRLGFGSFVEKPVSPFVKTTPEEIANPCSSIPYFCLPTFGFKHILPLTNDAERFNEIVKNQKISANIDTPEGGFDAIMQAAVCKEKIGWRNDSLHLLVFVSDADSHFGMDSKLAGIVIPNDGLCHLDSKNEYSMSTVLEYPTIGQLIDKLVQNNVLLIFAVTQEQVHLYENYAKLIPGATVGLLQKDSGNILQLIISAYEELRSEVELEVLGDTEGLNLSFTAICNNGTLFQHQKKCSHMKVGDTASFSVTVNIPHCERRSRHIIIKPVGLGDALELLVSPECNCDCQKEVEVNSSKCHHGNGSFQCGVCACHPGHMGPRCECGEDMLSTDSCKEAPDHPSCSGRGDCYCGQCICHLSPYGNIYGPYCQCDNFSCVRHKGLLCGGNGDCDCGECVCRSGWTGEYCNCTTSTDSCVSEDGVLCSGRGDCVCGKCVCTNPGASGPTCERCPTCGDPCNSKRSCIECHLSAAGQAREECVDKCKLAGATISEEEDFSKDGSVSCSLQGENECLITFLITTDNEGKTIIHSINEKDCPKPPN

human αVβ5 = human αVβ5 (Homo sapiens, UniProt P06756+P18084); assay: human αVβ5 HTRF binding assay; conditions: read-out: Human αVβ5 IC50
Procedure: as §1, §2

human αVβ3 = human αVβ3 (Homo sapiens, UniProt P05106+P06756); assay: human αVβ3 HTRF binding assay; conditions: read-out: Human αVβ3 IC50
Procedure: as §1, §2

human αVβ1 = human αVβ1 (Homo sapiens, UniProt P05556+P06756); assay: human αVβ1 HTRF binding assay; conditions: read-out: Human αVβ1 IC50
Procedure: as §1
The following describes the components and a representative procedure for the human αVβ6 HTRF binding assay: Recombinant human αVβ6 Integrin (R & D systems, 3817-AV) was biotinylated. […] The resulting mixture was centrifuged at 600 rpm for three minutes using Thermo Fisher Heraeus Multifuge X3 centrifuge and then incubated at room temperature overnight in dark before reading HTRF signals.
The SPA-based assay was carried out according to the protocol and procedures similar to the ones described in the following reference with appropriate modifications to agents and ligands which are readily understood by one skilled in the art: Pachter J A, Zhang R, Mayer-Ezell R., “Scintillation proximity assay to measure binding of soluble fibronectin to antibody-captured αVβ1 integrin” Anal Biochem. 1995 Sep. […]

human αVβ6 = human αVβ6 (Homo sapiens, UniProt P06756+P18564); assay: human αVβ6 HTRF binding assay; conditions: read-out: Human αVβ6 IC50, recombinant human αVβ6 integrin, FITC-conjugated fibronectin
Procedure: as §1, §2

IC50 (human αVβ8): 2300 nM
IC50 (human αVβ5): 1 nM
IC50 (human αVβ3): 2.4 nM
IC50 (human αVβ1): 2300 nM
IC50 (human αVβ6): 1.2 nM
SMILES: COc1ccc([C@H](CC(=O)O)n2cc3ccc(OCCc4ccc5c(n4)NCCC5)cc3n2)cn1

From patent US10745384B2, “Indazole derivatives as αv integrin antagonists” (BRISTOL-MYERS SQUIBB COMPANY, priority 2016, dated 2020)
